Rows were chosen to be rich in hits. Some 13% of all compounds tested hit in one or more screens of this group.
G9a block: inhibitors of human histone lysine methyltransferase G9a | Q96KQ7 | G9a H3K9 monomethylation, AlphaScreen, 2 h | Potency, µM (highest dose often 102 µM), usual class: inhibitors | 350,000 tested, 8.8% active | AID 504332; note: nearly all actives have a fitted effect of over 75% in size
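Signal arises when biotinylated H3K9 peptide, once monomethylated, bridges streptavidin donor and antibody-captured acceptor beads. Enzyme at 20 nM was preincubated 15 min with test compounds; peptide 500 nM and SAM 20 uM then reacted for 2 h.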
KDM4E inh: blocks human JMJD2E demethylase activity | B2RXH2 | JMJD2E catalytic domain, FDH-coupled NADH fluorescence (FDH is formaldehyde dehydrogenase) | Potency, µM (titrated, usually from 57.1 µM), hits mostly inhibitors | 230,000 tested, 1.6% active | AID 2147; active = well fitted inhibition curve with a large enough effect, not every such curve was filed as active; inconclusive = small, poorly fitted or top-dose-only effect, or another doubt; inactive = no such curve, though single readings can be large or run the other way; note: nearly all actives have a fitted effect of over 50% in size
miR-21 reporter: miR-21 reporter, rising signal. 340,000 tested, under 10 active. Potency, µM (highest dose often 38.3 µM). HeLa miR-21 FLuc reporter, luciferase, 48 h. AID 2288; active = well fitted rising curve with a large enough effect; inconclusive = small, poorly fitted or top-dose-only effect; inactive = no such curve, though single readings can be large or run the other way;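 further: miR-21 action dims this reporter so a rising signal means less miR-21 action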
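Using DMEM plus 10% FBS, HeLa miR-21-FLuc cells are incubated with test compounds (final up to about 40uM) for 48 hours; firefly luciferase signal is then imaged following reagent-mediated lysis.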
LMNA splice mod: LMNA splicing modulation; Potency, µM (titrated, usually from 46.1 µM), hits mostly inhibitors; HeLa LMNA splicing GFP/RFP minigene ratio, 48 h; AID 1487; 200,000 tested, 0.01% active; active = well fitted inhibition curve with a large enough effect in the signal ratio, with a control signal flat, not every such curve was filed as active; inconclusive = small, poorly fitted or top-dose-only effect, or effect the other way, or a change in a side signal; the % refers to the signal ratio
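S3 HeLa cells stably expressing lamin A-EGFP splicing minigene plus DsRed2, 600 cells/well, 48 h compound exposure at 37C. Laser-scanning cytometry; analysed as GFP (500-530 nm)/RFP (575-640 nm) total intensity ratio; 0.5% DMSO vehicle.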
Sfp inh: inhibitors of Bacillus subtilis Sfp phosphopantetheinyl transferase | Q9F4F7 | Biochemical Sfp PPTase activity, qHTS | Potency, µM, hits mostly inhibitors | 310,000 tested, 3.5% active | AID 1490;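 note: the enzyme is Sfp with the accession as filed and its product quenches rhodamine fluorescence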
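Fluorescence-quenching assay with 15 nM Sfp, 5 uM rhodamine-CoA and 12.5 uM BHQ-2-labelled ybbR peptide in pH 7.6 Hepes/MgCl2 buffer. Enzyme was pre-incubated with compound for 15 min at room temperature. Rate was taken from the 30-min fluorescence change (525/598 nm).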
ALDH1A1 block: ALDH1A1 (human) enzyme inhibition; Purified ALDH1A1, NADH fluorescence, propionaldehyde substrate; 220,000 tested, 7.3% active; Potency, µM (doses to about 75.3 µM), actives largely listed as inhibitors; P00352; active = well fitted inhibition curve with a large enough effect, not every such curve was filed as active; inconclusive = small, poorly fitted or top-dose-only effect, or another doubt; inactive = no such curve, though single readings can be large or run the other way
A number is an active result; n = inactive; u = inconclusive; x = not tested or not shown; [ ] = dose if it differs, or a comment. Unless noted, calls come from the whole dose curve; as a rule, active = well fitted curve in the direction sought with a large enough effect; inconclusive = small, poorly fitted or top-dose-only effect, or another doubt; inactive = no such curve, though single readings can be large; an effect the other way counts as inactive or inconclusive.

SMILES | G9a block | KDM4E inh | miR-21 reporter | LMNA splice mod | Sfp inh | ALDH1A1 block
Cc1ccc(N2C(=O)CC(N(O)C3CC(=O)N(c4ccc(C)cc4)C3=O)C2=O)cc1 (stereo not drawn) | u | n | n | n | n | 2.82µM
CCCCCCC(=O)N(O)C1CC(=O)N(c2ccc(C)cc2)C1=O (stereo not drawn) | 1.26µM | n | n | u | 20µM | 0.447µM
O=C(O)CSC1CC(=O)N(c2ccc(Cl)cc2)C1=O (stereo not drawn) | u | n | n | n | n | u
CCCCCCC(=O)N(O)C1CC(=O)N(c2ccc(Cl)cc2)C1=O (stereo not drawn) | x | u | n | x | 25.1µM | x
CCCOc1ccc(N2C(=O)CC(N(CCC)C(=O)CCC(=O)O)C2=O)cc1 (stereo not drawn) | n | n | n | n | n | n
CCOc1ccccc1NC(=O)CSc1nnc(NC(=O)c2ccco2)s1 | x | x | n | x | n | x
O=C(c1ccc(-c2cccc(Cl)c2)o1)N1CCN(c2ccc([N+](=O)[O-])cc2)CC1 | n | n | n | n | n | u
N#CCCN1CCN(C(=S)c2ccc(-c3cccc(Cl)c3)o2)CC1 | 8.91µM | n | n | u | 44.7µM | 11.2µM
N#CCCN1CCN(C(=S)c2ccc(-c3ccc(Cl)c(Cl)c3)o2)CC1 | u | n | n | u | 50.1µM | u
C#CCOCCOCCOCCNc1nc(N2CCN(C(=O)[C@H]([C@@H](C)CC)n3cc(CCCCN)nn3)CC2)nc(N2CCN(C(=O)[C@H]([C@@H](C)CC)n3cc(CCCN=C(N)N)nn3)CC2)n1 | n[2.33 µM] | x | x | x | x | x
C#CCOCCOCCOCCNc1nc(N2CCOCC2)nc(N2CCN(C(=O)[C@H]([C@@H](C)CC)n3cc(CCCCN)nn3)CC2)n1 | 50.1µM | n | n | u | n | n
C#CCOCCOCCOCCNc1nc(N2CCN(C(=O)[C@H](C(C)C)n3cc(CCO)nn3)CC2)nc(N2CCN(C(=O)[C@H]([C@@H](C)CC)n3cc(CCCCN)nn3)CC2)n1 | 50.1µM | n | n | n | n | n
C#CCOCCOCCOCCNc1nc(N2CCN(C(=O)[C@H]([C@@H](C)CC)n3cc(CCCCN)nn3)CC2)nc(N2CCN(C(=O)[C@H](C)n3cc(CCCN=C(N)N)nn3)CC2)n1 | n[2.33 µM] | x | x | x | x | x
Cc1ccc(OCC(=O)Nc2ccc(S(=O)(=O)N(Cc3ccccc3)c3ccccc3)cc2)cc1 | n | x | n | u | x | x
Oc1ccccc1-c1cc(-c2ccco2)[nH]n1 | 14.1µM | u | n | n | n | 14.1µM
Oc1ccc(Br)cc1-c1cc(-c2ccco2)[nH]n1 | u | n | n | n | n | n
Oc1ccc(Cl)cc1-c1cc(-c2ccco2)[nH]n1 | u | n | n | n | 50.1µM | u
O=C(O)/C=C/c1ccc(-n2ccnc2)cc1 | n | n | n | x | n | x
COc1cccc(C(=O)Nc2sc3c(c2C#N)CCN(C(C)=O)C3)c1 | 5.01µM | n | n | u | 39.8µM | 8.91µM
COc1cccc(C(=O)Nc2sc3c(c2C(=O)O)CCCC3)c1 | n | x | n | x | n | x
CC(=O)N1CCc2c(sc(NC(=O)c3cccc(N4C(=O)CCC4=O)c3)c2C(N)=O)C1 | 44.7µM | x | n | x | n | x
COc1ccc(NC(=O)C2C3C=CC4(O3)C2C(=O)N(CCN2CCCCC2)C4C(=O)NC2CCCC(C)C2C)cc1 (stereo not drawn) | n | x | n | x | n | x
CCC1CCCCN1S(=O)(=O)c1ccc([N+](=O)[O-])cc1 (stereo not drawn) | 70.8µM | x | n | x | n | x
CC1CCCCN1S(=O)(=O)c1ccc([N+](=O)[O-])cc1 (stereo not drawn) | x | x | n | x | n | x
CCN(Cc1ccccc1)S(=O)(=O)c1ccc(C(=O)N(CCCN(C)C)c2nc3cc4c(cc3s2)OCO4)cc1 | x | x | n | x | 56.2µM | x
SMILES | G9a block | KDM4E inh | miR-21 reporter | LMNA splice mod | Sfp inh | ALDH1A1 block
CCN(Cc1ccccc1)S(=O)(=O)c1ccc(C(=O)N(CCCN(C)C)c2nc3c(C)c(C)ccc3s2)cc1 | 35.5µM | x | x | x | x | x
CN(C)CCCN(C(=O)c1ccc(S(=O)(=O)N(C)C)cc1)c1nc2cc3c(cc2s1)OCO3 | 50.1µM | n | n | n | n | n
Cc1ccc2sc(N(CCCN(C)C)C(=O)c3ccc(S(=O)(=O)N(C)C4CCCCC4)cc3)nc2c1C | 31.6µM | x | x | x | x | x
Cc1ccc2nc(N(CCCN(C)C)C(=O)c3ccc(S(=O)(=O)N(C)C)cc3)sc2c1 | u | n | n | n | n | n
COc1cccc(NC(=O)CSc2nnc3[nH]c(=O)cc(-c4ccccc4)n23)c1 | u | x | n | n | x | x
CC(C)c1nc2ccc(C(=O)NCc3ccc(N(C)C)cc3)cc2o1 | 15.8µM | x | n | n | x | x
CCc1nc2ccc(C(=O)NCc3ccc(N(C)C)cc3)cc2nc1CC | 3.55µM | x | n | u | x | x
Cc1cc(C)cc(-n2cnc3cc(C(=O)NC4CCCCCC4)ccc32)c1 | n | x | n | n | x | x
Cc1cc(C)nc(NCC(O)CNc2ccccc2Cl)n1 (stereo not drawn) | 7.08µM | n | n | u | n | n
CCCC(=O)n1nc(-c2ccccc2)nc1SC | 1.12µM | n | n | n | n | n
COC(=O)[C@@H]1C[C@@]2(O)[C@@H](O)[C@@H](O)[C@@H](O)C[C@H]2N1Cc1ccc(C(C)(C)C)cc1 | x | u | x | x | n | u

High-throughput results (PubChem)
